Columns and labels:
[1] = molecular target: Phosphatidylinositol 4,5-bisphosphate 3-kinase catalytic subunit gamma isoform (Homo sapiens, UniProt P48736)
[2] = molecular target: Phosphatidylinositol 4,5-bisphosphate 3-kinase catalytic subunit alpha isoform (Homo sapiens, UniProt P42336)
MDA-MB-361 = assay: cells; settings: Homo sapiens

Sequences of proteins named here, by UniProt entry; tags and fusion partners are left off. A change or cut given only in a name is not applied to a line headed by its entry.
UniProt P48736: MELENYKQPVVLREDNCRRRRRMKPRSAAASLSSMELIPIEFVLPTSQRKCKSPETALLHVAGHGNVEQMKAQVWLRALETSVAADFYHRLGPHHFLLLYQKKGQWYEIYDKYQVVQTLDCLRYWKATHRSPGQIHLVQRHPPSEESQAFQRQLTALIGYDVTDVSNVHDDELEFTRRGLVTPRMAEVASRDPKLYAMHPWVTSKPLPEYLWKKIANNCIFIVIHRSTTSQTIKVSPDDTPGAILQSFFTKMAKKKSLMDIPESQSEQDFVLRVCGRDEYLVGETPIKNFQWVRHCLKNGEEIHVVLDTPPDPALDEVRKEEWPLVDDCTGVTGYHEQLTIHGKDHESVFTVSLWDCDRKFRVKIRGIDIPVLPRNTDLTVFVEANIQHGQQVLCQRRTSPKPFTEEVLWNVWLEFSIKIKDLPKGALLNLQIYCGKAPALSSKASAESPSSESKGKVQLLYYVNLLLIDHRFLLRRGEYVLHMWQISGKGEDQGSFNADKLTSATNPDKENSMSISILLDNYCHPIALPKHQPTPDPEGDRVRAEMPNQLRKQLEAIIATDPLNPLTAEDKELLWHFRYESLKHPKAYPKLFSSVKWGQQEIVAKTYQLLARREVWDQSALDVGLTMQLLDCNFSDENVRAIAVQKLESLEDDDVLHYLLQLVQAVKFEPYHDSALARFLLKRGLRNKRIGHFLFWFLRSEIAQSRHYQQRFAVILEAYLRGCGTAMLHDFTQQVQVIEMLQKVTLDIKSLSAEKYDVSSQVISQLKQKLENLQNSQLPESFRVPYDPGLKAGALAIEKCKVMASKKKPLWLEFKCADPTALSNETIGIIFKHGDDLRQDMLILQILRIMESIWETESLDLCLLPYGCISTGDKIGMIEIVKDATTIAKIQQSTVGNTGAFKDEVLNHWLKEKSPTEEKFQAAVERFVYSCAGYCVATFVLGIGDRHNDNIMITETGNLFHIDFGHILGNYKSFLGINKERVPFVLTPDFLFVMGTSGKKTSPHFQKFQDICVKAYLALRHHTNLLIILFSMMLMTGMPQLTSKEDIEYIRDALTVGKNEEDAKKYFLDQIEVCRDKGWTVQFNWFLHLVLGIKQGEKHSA
UniProt P42336, whole entry: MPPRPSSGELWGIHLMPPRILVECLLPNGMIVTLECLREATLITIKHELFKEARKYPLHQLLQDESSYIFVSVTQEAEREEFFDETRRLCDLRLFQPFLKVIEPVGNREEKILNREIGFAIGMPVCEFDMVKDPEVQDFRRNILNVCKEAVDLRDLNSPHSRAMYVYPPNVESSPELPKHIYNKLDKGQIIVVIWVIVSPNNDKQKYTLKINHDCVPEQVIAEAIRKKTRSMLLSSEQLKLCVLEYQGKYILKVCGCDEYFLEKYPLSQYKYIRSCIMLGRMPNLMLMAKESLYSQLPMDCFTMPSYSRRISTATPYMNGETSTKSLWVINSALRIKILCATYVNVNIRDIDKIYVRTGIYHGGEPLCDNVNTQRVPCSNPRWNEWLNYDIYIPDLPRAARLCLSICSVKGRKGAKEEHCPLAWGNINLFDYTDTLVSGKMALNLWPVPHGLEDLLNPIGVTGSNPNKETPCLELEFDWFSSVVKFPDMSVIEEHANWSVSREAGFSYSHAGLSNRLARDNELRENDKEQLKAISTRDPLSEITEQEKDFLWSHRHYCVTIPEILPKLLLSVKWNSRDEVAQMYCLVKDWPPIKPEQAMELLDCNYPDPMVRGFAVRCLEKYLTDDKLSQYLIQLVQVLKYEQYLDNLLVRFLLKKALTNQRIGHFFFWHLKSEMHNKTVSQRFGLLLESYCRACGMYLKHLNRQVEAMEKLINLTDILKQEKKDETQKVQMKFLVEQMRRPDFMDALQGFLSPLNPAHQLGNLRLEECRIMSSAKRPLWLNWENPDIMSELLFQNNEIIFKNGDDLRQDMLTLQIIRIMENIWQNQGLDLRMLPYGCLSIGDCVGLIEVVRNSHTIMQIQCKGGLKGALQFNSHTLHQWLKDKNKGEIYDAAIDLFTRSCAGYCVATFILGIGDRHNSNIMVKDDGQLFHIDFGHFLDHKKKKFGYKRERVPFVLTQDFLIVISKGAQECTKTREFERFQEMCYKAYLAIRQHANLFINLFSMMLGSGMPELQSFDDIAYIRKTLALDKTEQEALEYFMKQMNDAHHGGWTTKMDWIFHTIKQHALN

O=C(Nc1ccc(-c2nc(N3CCOCC3)nc(N3CCOCC3)n2)cc1)Nc1cccnc1
IC50 [1]: 34 nM

CNC(=O)c1ccc(NC(=O)Nc2ccc(-c3nc(N4CCOCC4)nc(N4CCOCC4)n3)cc2)cc1
IC50 [2]: 1.5 nM
IC50 (MDA-MB-361): 19 nM

From ChEMBL document CHEMBL1157610, “Bis(morpholino-1,3,5-triazine) derivatives: potent adenosine 5'-triphosphate competitive phosphatidylinositol-3-kinase/mammalian target of rapamycin inhibitors: discovery of compound 26 (PKI-587), a highly efficacious dual inhibitor” (J Med Chem, 2010)
